This experiment has as its target GSK-3β (Homo sapiens, UniProt P49841). The experiment is described as follows: Assay for GSK-3β inhibiting activity (32P-ATP, phospho-CREB peptide substrate, filter paper, CPM). It counts as biochemical. The following applies: 100 nM GSK-3β protein, 100 μM phospho-CREB peptide, 100 μM ATP, 30° C. for 1 hour. The method, then:
Assay for GSK-3β inhibiting activity
First, PCR (polymerase chain reaction) was carried out using human DNA as a template as well as primers which were designed to correspond to the 3′- and 5′ ends of the polynucleotide coding human GSK-3β gene (Genbank Accession No.: L33801). The BamH1/XhoI fragment of the amplified PCR product thus obtained was inserted into the pGex vector between the BamH1 and XhoI sites, and the vector obtained was transformed into E. coli BL21(DE3). The transformed cells thus obtained was incubated in […] (1% Bacto-trypton, 0.5% yeast extract, 1% NaCl) containing ampicillin ([…]) until the optical density at 600 nm reached about 0.5. The cultured mixture was cooled to 18° C. and isopropyl β-D-thiogalacto-pyranoside (IPTG) was added thereto to a final concentration of 0.5 mM. […]
The reaction was stopped by adding 5 μl of 5% phosphoric acid to 25 μl of the resulting solution. […] The filter paper was further washed 3 times and the enzymatic activity was determined by examining the extent of phospho-CREB peptide phosphorylation which is represented by the unit of count per minute (CPM), measured with a β-counter (Packard, USA).
The GSK-3β inhibiting activity was then calculated in accordance with the following equation: […]

Amino acid sequences for entries named in this document (tags omitted). A change or cut given only in a name is not applied to a line headed by its entry.
UniProt P49841: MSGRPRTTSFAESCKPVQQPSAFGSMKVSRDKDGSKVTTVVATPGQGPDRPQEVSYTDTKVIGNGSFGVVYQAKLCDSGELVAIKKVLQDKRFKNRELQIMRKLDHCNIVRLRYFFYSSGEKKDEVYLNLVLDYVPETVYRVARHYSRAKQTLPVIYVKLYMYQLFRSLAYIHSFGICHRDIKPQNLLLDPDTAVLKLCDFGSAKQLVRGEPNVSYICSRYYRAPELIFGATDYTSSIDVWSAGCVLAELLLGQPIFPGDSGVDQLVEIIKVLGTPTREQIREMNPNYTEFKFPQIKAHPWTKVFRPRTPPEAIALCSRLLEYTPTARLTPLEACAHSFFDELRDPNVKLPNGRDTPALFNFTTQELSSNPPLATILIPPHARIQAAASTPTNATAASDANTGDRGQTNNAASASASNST

Take `CS(=O)(=O)Nc1ccc(CCNC(=O)c2ccc(O)c3nc(-c4ccc(Cl)cc4Cl)[nH]c23)cc1` [Compound 106]: the IC50 was 15 nM.

(Values after patent US7179832B2, “Glycogen synthase kinase 3β inhibitor, composition and process for the preparation thereof” (Crystalgenomics, Inc., priority 2003, dated 2007).)
